Assay results published in ChEMBL document CHEMBL1146130, “Benzoxazole benzenesulfonamides as allosteric inhibitors of fructose-1,6-bisphosphatase” (Bioorg Med Chem Lett, 2006).

Molecular target: T1, Fructose-1,6-bisphosphatase 1 (Homo sapiens, UniProt P09467)
T1 sequence (P09467 whole entry): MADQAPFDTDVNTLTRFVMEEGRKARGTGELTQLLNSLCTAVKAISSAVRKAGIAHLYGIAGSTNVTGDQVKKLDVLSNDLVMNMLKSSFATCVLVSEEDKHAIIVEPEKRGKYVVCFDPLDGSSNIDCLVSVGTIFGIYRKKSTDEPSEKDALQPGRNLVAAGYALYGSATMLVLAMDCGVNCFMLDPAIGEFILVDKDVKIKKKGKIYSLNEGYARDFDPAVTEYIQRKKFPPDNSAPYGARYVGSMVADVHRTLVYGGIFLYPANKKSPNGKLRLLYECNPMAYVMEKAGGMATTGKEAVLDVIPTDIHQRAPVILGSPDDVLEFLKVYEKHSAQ
Assay: Inhibition of human FBPase1

IC50: 570 nM
Compound: COc1cc(-c2cccc(N)c2)c2oc(NS(=O)(=O)c3cc(Cl)ccc3Cl)nc2c1
